Source: PubChem BioAssay AID602211 (Sanford-Burnham Center for Chemical Genomics, 2012)

Tested on: H9c2 cardiomyocytes, H2O2 protection, ATPLite viability, 2 h
Experiment: protection of H9c2 cardiomyocytes from H2O2 death, dose response, cell-based, ATPLite luminescence, set 2 (AID 602211);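 also: potency is for protection so actives keep ATP signal up against peroxide killing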

## NC(=O)c1ccsc1NC(=O)c1ccc([N+](=O)[O-])o1
  IC50: 2380 nM
